{"sequences": {"note": "Chains of the proteins cited; added tags and fusions are not shown. Residues count along the entry.", "UniProt P01116, 1-169 isoform 2 G12V limits assumed": "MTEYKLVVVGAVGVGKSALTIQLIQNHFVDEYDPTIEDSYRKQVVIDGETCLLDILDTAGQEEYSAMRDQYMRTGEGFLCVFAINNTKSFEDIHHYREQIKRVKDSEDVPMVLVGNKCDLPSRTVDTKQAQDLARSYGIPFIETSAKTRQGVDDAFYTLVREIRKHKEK", "UniProt P01116, 1-169 isoform 2 G12D limits assumed": "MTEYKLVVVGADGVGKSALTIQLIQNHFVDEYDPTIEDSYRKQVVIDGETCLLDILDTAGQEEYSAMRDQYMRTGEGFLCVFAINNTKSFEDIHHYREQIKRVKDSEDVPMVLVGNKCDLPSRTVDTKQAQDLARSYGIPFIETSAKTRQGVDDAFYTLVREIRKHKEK"}, "source": "patent US20250034166A1", "about": "“POLYCYCLIC FUSED RING DERIVATIVES AND USE THEREOF” (Jacobio Pharmaceuticals Co., Ltd., priority 2021, published 2025)", "key": {"K-Ras G12V [1]": {"target": "T1, K-Ras G12V (Homo sapiens, UniProt P01116, G12V)", "test": "GTP-K-Ras and cRAF interaction assay (GppNp-K-Ras), HTRF", "details": "read-out: Biochemical assays, IC50 KRAS G12V GppNp, GppNp-loaded K-Ras G12V, cRAF RBD interaction"}, "SW620 cells (K-Ras G12V) [2]": {"test_system": "SW620 cells (K-Ras G12V)", "test": "Phospho-ERK1/2(THR202/TYR204) HTRF assay", "experimental": "(§1) p-ERK (MAPK pathway) inhibition activity of each of compounds in a variety of K-Ras mutant and K-Ras WT cell lines indicated in Table 12 was evaluated. MKN-1 with K-Ras WT amplification is also a K-Ras dependent cell line.\n(§2) Each of cells in culture medium was seeded in 96-well plates at density indicated in Table 16 and then put in a cell incubator to incubate overnight. The next day, the culture medium was removed and the compound diluted in assay medium was added in each well. After 2 hours incubation in a cell incubator, the assay medium in 96-well plates was removed, then 50 μL of 1× blocking reagent-supplemented lysis buffer (Cisbio) was added and the plates were incubated at 25° C. for 45 min with shaking. 10 μL of cell lysates from the 96-well plates were transferred to a 384-well plate (Greiner) containing […] HTRF® pre-mixed antibodies (Cisbio 64AERPEH). The plate was incubated 4 hours at 25° C. and then read HTRF signals on Tecan Spark multimode microplate reader. The data were analyzed using a 4-parameter logistic model to calculate IC50 values."}, "AGS cells (K-Ras G12D) [3]": {"test_system": "AGS cells (K-Ras G12D)", "test": "Phospho-ERK1/2(THR202/TYR204) HTRF assay", "details": "read-out: p-ERK, IC50 AGS, 2 hours incubation, tested form: TFA", "experimental": "as §1, §2"}, "SW620 cells (K-Ras G12V) [4]": {"test_system": "SW620 cells (K-Ras G12V)", "test": "2D cell growth inhibition assay (CellTiter-Glo)", "details": "read-out: Cell Growth Inhibition, IC50 SW620, 6 days, absolute IC50, tested form: TFA", "experimental": "(§3) The cell growth inhibition activity of each of compounds was tested by performing cell growth inhibition assays on a variety of K-Ras mutant and K-Ras WT cell lines indicated in Table 14.\n(§4) Each of cells in culture medium was plated in TC-treated 96-well plates at a density indicated in Table 14 and incubated in a cell incubator overnight. The next day, each of compounds was diluted in culture medium and added to the plates. After 6 days incubation in cell incubator, the cell viability was detected by CellTiter-Glo® Cell Viability Assay kit (Promega). Luminescent signals were read on Tecan Spark multimode microplate reader and analyzed using a 4-parameter logistic model to calculate absolute IC50 values."}, "AGS cells (K-Ras G12D) [5]": {"test_system": "AGS cells (K-Ras G12D)", "test": "2D cell growth inhibition assay (CellTiter-Glo)", "details": "read-out: Cell Growth Inhibition, IC50 AGS, 6 days, absolute IC50, tested form: TFA", "experimental": "as §3, §4"}, "[6]": {"test_system": "AsPC-1 cells (K-Ras G12D)", "test": "2D cell growth inhibition assay (CellTiter-Glo)", "details": "read-out: Cell Growth Inhibition, IC50 AsPC-1, AsPC-1 (G12D), 6 days, absolute IC50, tested form: TFA"}, "K-Ras G12V [7]": {"target": "T1, K-Ras G12V", "test": "SOS1 catalyzed nucleotide exchange assay (GDP form K-Ras), TR-FRET"}, "K-Ras G12D [8]": {"target": "T2, K-Ras G12D (Homo sapiens, UniProt P01116, G12D)", "test": "SOS1 catalyzed nucleotide exchange assay (GDP form K-Ras), TR-FRET"}, "K-Ras G12D [9]": {"target": "T2, K-Ras G12D", "test": "GTP-K-Ras and cRAF interaction assay (GppNp-K-Ras), HTRF", "details": "read-out: Biochemical assays, IC50 KRAS G12D GppNp, GppNp-loaded K-Ras G12D, cRAF RBD interaction"}, "[10]": {"details": "read-out: p-ERK, IC50 SW620, 2 hours incubation, tested form: TFA"}, "[11]": {"details": "read-out: Biochemical assays, IC50 KRAS G12V GDP, tested form: TFA"}}, "data": [{"molecule": "C#Cc1c(F)ccc2cc(O)cc(-c3nc4c5c(nc(OC[C@@]67CCCN6C[C@H](F)C7)nc5c3F)N3CCCOC[C@H]3C(C)O4)c12", "note": "(single isomer, unassigned) [Compound 13A]", "values": [{"measurement": "IC50", "setting": "K-Ras G12V [1]; tested form: TFA", "result": 25, "unit": "nM"}, {"measurement": "IC50", "setting": "SW620 cells (K-Ras G12V) [2]; [10]", "result": 6.74, "unit": "nM"}, {"measurement": "IC50", "setting": "AGS cells (K-Ras G12D) [3]", "result": 6.89, "unit": "nM"}, {"measurement": "IC50", "setting": "SW620 cells (K-Ras G12V) [4]", "result": 13.2, "unit": "nM"}, {"measurement": "IC50", "setting": "AGS cells (K-Ras G12D) [5]", "result": 15.7, "unit": "nM"}, {"measurement": "IC50", "setting": "[6]", "result": 224, "unit": "nM"}, {"measurement": "IC50", "setting": "K-Ras G12V [7]; [11]", "result": 1.23, "unit": "nM"}, {"measurement": "IC50", "setting": "K-Ras G12D [8]; read-out: Biochemical assays, IC50 KRAS G12D GDP, tested form: TFA", "result": 1.83, "unit": "nM"}]}, {"molecule": "C#Cc1c(F)ccc2cc(O)cc(-c3nc4c5c(nc(OC[C@@]67CCCN6C[C@H](F)C7)nc5c3F)N3CCOC[C@H]3[C@@H](C)O4)c12", "values": [{"measurement": "IC50", "setting": "K-Ras G12V [1]", "result": 1000, "unit": "nM"}, {"measurement": "IC50", "setting": "K-Ras G12D [9]", "result": 319, "unit": "nM"}, {"measurement": "IC50", "setting": "SW620 cells (K-Ras G12V) [2]; read-out: p-ERK, IC50 SW620, 2 hours incubation", "result": 36.4, "unit": "nM"}, {"measurement": "IC50", "setting": "K-Ras G12V [7]; read-out: Biochemical assays, IC50 KRAS G12V GDP", "result": 6.07, "unit": "nM"}, {"measurement": "IC50", "setting": "K-Ras G12D [8]; read-out: Biochemical assays, IC50 KRAS G12D GDP", "result": 10.8, "unit": "nM"}]}, {"molecule": "C#Cc1c(F)ccc2cc(O)cc(-c3nc4c5c(nc(OC[C@@]67CCCN6C[C@H](F)C7)nc5c3F)N3CCCOC[C@H]3C(C)O4)c12", "note": "(single isomer, unassigned) [Compound 13B]", "values": [{"measurement": "IC50", "setting": "K-Ras G12V [1]; tested form: TFA", "result": 49.3, "unit": "nM"}, {"measurement": "IC50", "setting": "K-Ras G12D [9]; tested form: TFA", "result": 21.4, "unit": "nM"}, {"measurement": "IC50", "setting": "SW620 cells (K-Ras G12V) [2]; [10]", "result": 1.19, "unit": "nM"}, {"measurement": "IC50", "setting": "AGS cells (K-Ras G12D) [3]", "result": 1.68, "unit": "nM"}, {"measurement": "IC50", "setting": "SW620 cells (K-Ras G12V) [4]", "result": 1.91, "unit": "nM"}, {"measurement": "IC50", "setting": "AGS cells (K-Ras G12D) [5]", "result": 4.01, "unit": "nM"}, {"measurement": "IC50", "setting": "[6]", "result": 40, "unit": "nM"}, {"measurement": "IC50", "setting": "K-Ras G12V [7]; [11]", "result": 0.699, "unit": "nM"}]}]}
